Experimental data: patent publication US11395798B2, “O/W type emulsion” (NOF CORPORATION, priority 2015, dated 2022)

Legend:
[1] = retentivity in blood of Dex-CHEMS / Dex-Pal emulsions (HPLC of plasma); format: in vivo; details: emulsion composed with B-2, ICR mouse, intravenous
Protocol: When the lipid composition was 3 mM B-2/DOPC/Chol=3/4/3+10 mol % Dex-CHEMS+10 mol % DMG-PEG2000+10 mol % DSG-PEG2000 (1000 μL), a lipid solution was mixed in vitro as follows.
The solvent was evaporated once and the residue was redissolved in 100 μL CHCl3. N2 gas was blown to form a lipid thin film on the wall of a test tube. After a few hours of a vacuum treatment by a desiccator, 20 mM Maric acid buffer (30 mM NaCl, pH 3.0, 1000 μL) was added, and the mixture was incubated for 10 min at room temperature. After sonication with a bath-type sonicator for 30 sec, the mixture was sonicated by a probe-type sonicator for 5 min (output power: 30%). After centrifugation at 4° C., 15000 g for 5 min, the supernatant was collected. Neutralization was performed by adding an equal amount of 36 mM NaOH/PBS. […]
Plasma (16.5 μL) centrifuged at 4° C., 1000 g for 10 min was transferred to another 1.5 mL tube. […] Using HPLC, the peak area of Dex-CHEMS and the peak area of 4 MU-Pal were calculated. The peak area of 0.5, 0.25, 0.125, 0.0625 nmol Dex-CHEMS was calculated by a similar method using HPLC and used as an analytical curve. […]
The residual rate in blood at 1 hr later was calculated with that 1 min after the administration as 100%. Similar to the above-mentioned, an emulsion composed of B-2 and dexamethasone palmitate (Dex-Pal) was prepared and evaluated similarly.

[2] = water/octanol; cited from earlier work

Q: With dexamethasone palmitate [Dex-Pal] as the substance, how does the “residual in blood at 1 hr (1 min after administration as 100%)” value [1] read?
A: The value was “disappeared from blood”.

Q: What about the “Log Pow” value [2] of the same substance?
A: The value was 8.13.
